# Antibody variant affinities, Ab-14 light chain, assay B

From the AlphaSeq antibody data of Li et al. 2023 (doi:10.1038/s41467-023-39022-2), copy in the FLAb collection.

Target peptide (SARS-CoV-2 spike, HR2 region): PDVDLGDISGINAS

Parent scFv Ab-14: VH joined to VL by the linker GGGGSGGGGSGGGGS. Changes lie in the light chain CDRs alone.
VH: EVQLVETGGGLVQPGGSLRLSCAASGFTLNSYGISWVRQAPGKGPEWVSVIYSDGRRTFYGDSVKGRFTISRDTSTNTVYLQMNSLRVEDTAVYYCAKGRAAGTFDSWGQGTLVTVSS
VL: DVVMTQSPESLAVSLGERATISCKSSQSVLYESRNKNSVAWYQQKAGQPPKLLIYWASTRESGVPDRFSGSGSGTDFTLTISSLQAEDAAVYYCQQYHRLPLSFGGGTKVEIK

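The starting antibody came from a phage panning campaign against this peptide. The variants were designed computationally from a first round of random CDR variants and then made and measured. Their group label is 14L_GP_Gibbs (GP: Gaussian process model; Gibbs: Gibbs sampling; a sequence that several methods proposed may carry one label only). Affinity was read by AlphaSeq, a pooled yeast mating assay with surface-displayed partners. Mating (16 h, 30 °C) was followed by selection of diploids and sequencing of their barcodes. A regression on co-assayed BCL2-family reference pairs converts the normalised counts of each replicate to an apparent Kd. The assay was run in six technical replicates.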

Variants are written as CDR1, CDR2 and CDR3 of the light chain (limits as in the source). Parent: KSSQSVLYESRNKNSVA, WASTRES, QQYHRLPLS.
The read-out is the apparent dissociation constant on a log10 scale (nM): the lower, the stronger.
The mean shown is taken over the replicates in which the pair was detected.
The range of this assay differs from that of the first round, and the authors advise against merging the two.
Empty control strains, which show no peptide, gave a signal in 4% of pairings with all light chain designs; the median was 2.64 and 95% of these signals were weaker than 1.59. No background was subtracted. For each scFv, signals with the empty controls are counted beside the result, with their mean in brackets.
The authors' rule: three or more of the six replicates give a measured affinity, fewer mean a poor binder.

CDR-L1 | CDR-L2 | CDR-L3 | replicates, log10 nM | mean log10 Kd (nM) | control signals
KVDQDDLYENRNKNSVA | QGSTRES | QQYHRLPLS | -0.41 / -0.42 / -0.56 / -0.77 / -0.52 / -0.48 | -0.53 | 0 of 18
KWSQSVPMGDRNKNSVA | DAHKRES | QQYHRLPLS | 0.29 / 0.51 / 0.22 / 0.03 / 0.15 / 0.29 | 0.25 | 1 of 18 (3.89)
KLMQSSGYDSRNKNSVA | QASTRMS | QQYHRLPLS | 0.10 / 0.23 / 0.38 / 0.21 / -0.03 / 0.26 | 0.19 | 0 of 18
KLMQSWLGQSWNKNSVA | NASQREH | QQYHRLPLS | 0.52 / 0.34 / 0.18 / 0.50 / 0.26 / 0.47 | 0.38 | 1 of 18 (2.32)
KLQQSVQYESRNQNAVA | QASQRES | QQYHRLPLS | 0.10 / 0.22 / -0.46 / -0.07 / -0.06 / 0.26 | 0.00 | 2 of 18 (2.67)
KVDQWEEYGSRNKNSVA | SASQRSS | QQYHRLPLS | 0.08 / -0.02 / -0.09 / -0.35 / -0.16 / 0.04 | -0.08 | 3 of 18 (2.58)
KVEQSNDYESRNKNSVA | NASQRLS | QQYHRLPLS | 0.73 / 0.75 / 0.49 / 0.46 / 0.30 / 0.92 | 0.61 | 1 of 18 (2.07)
KISGSVMMLSRNPNSVA | EATTRES | QQYHRLPLS | -0.26 / -0.57 / -0.52 / -0.73 / -0.57 / -0.45 | -0.52 | 1 of 18 (2.18)
KLEQSHLYMSRNANSVA | NASTRMS | QQYHRLPLS | 0.10 / 0.00 / -0.22 / -0.17 / -0.06 / 0.01 | -0.06 | 3 of 18 (3.41)
KLSQSVEVLSRNKNSVA | EASTREM | QQYHRLPLS | -0.57 / -0.46 / -0.45 / -0.61 / -0.47 / -0.05 | -0.43 | 1 of 18 (1.34)
KVYWGVDYGDRNKNSVA | HASQRES | QQYHRLPLS | 0.58 / -0.03 / -0.48 / -0.77 / -0.41 / 0.00 | -0.19 | 0 of 18
KLSQSELYESRQFNSVA | HASQREL | QQYHRLPLS | 0.28 / 0.11 / -0.06 / 0.03 / -0.04 / 0.12 | 0.07 | 0 of 18
KMSQAWWYESRNKWSVA | NASLREQ | QQYHRLPLS | -0.04 / 0.28 / 0.03 / -0.15 / 0.01 / 0.35 | 0.08 | 1 of 18 (1.91)
KLSTSVDYEDRNCNAVA | AASTREE | QQYHRLPLS | 0.20 / 0.38 / -0.10 / -0.01 / -0.09 / 0.27 | 0.11 | 1 of 18 (3.57)
KLSQSMEYESRNVNSVA | SASTREL | QQYHRLPLS | 0.27 / 0.19 / 0.10 / -0.04 / -0.02 / -0.05 | 0.07 | 0 of 18
KLSMSVLYEDRHKNSVA | NASKRFS | QQYHRLPLS | 1.32 / 1.11 / 0.92 / 1.07 / 1.37 / 1.20 | 1.16 | 1 of 18 (2.85)
KISQSVEYQQRNQNSVA | SASTRLS | QQYHRLPLS | 0.39 / 0.75 / 0.38 / 0.32 / 0.55 / 0.68 | 0.51 | 1 of 18 (3.34)
KLMWSVMLESRNKNSVA | QASTRMS | QQYHRLPLS | 0.83 / 0.88 / 0.59 / 0.66 / 0.79 / 0.62 | 0.73 | 1 of 18 (3.91)
KQSPQDLYQSRNKNQVA | DASTRES | QQYHRLPLS | -0.07 / 0.05 / -0.32 / -0.21 / -0.11 / -0.04 | -0.12 | 1 of 18 (3.24)
KFSQSALYGERMKNSVA | NASQRLS | QQYHRLPLS | 0.58 / 0.64 / 0.56 / 0.87 / 0.77 / 0.52 | 0.66 | 3 of 18 (2.97)
KLSQSDLYESRMSNNVA | MASTRMV | QQYHRLPLS | 0.54 / 1.02 / 0.70 / 0.74 / 0.93 / 0.74 | 0.78 | 0 of 18
KLSMSWPLLWRNHNSVA | SASTRES | QQYHRLPLS | 0.34 / 0.19 / 0.43 / 0.14 / 0.19 / 0.32 | 0.27 | 1 of 18 (1.81)
KLPQSWLYDSRNSNSVA | HASQRME | QQYHRLPLS | 0.34 / 0.02 / -0.21 / -0.20 / -0.20 / -0.12 | -0.06 | 1 of 18 (2.79)
KLEQSTLYESRNKNSVA | NASQRER | QQYKRLPLS | -0.28 / -0.12 / -0.21 / -0.20 / -0.36 / -0.31 | -0.25 | 0 of 18
KMSQSNDYEERNSNAVA | NASQREM | QQYHRLPLS | 0.44 / 0.19 / 0.13 / 0.28 / 0.13 / 0.30 | 0.25 | 2 of 18 (1.60)
KLDVSVLEKSRNKNSVA | QASTRES | QDYHRLPLS | 0.15 / -0.35 / -0.11 / -0.28 / -0.21 / -0.19 | -0.16 | 0 of 18
KISQEDPMESRNKNSVA | HASLRES | QQYHRLPLS | 0.64 / 0.31 / 0.34 / 0.31 / 0.43 / 0.65 | 0.45 | 0 of 18
KLQQSMWYESRNKNSVA | SASQREV | QQYHRLPLS | 0.03 / -0.19 / -0.02 / -0.09 / -0.08 / 0.16 | -0.03 | 0 of 18
KQSQLVWYEQRNKNNVA | EGSTRES | QQYHRLPLS | 0.10 / -0.13 / -0.28 / -0.24 / -0.30 / 0.04 | -0.14 | 0 of 18
KMAQGWEYESRNKNSVA | NASVREE | QQYHRLPLS | 1.36 / 0.29 / 0.67 / 0.65 / 1.13 / 0.93 | 0.84 | 1 of 18 (2.19)
KLEQSQLYGSRNKNSVA | NASQRER | QQYHRLPLS | 1.14 / 0.66 / 0.95 / 0.71 / 1.00 / 1.06 | 0.92 | 0 of 18
KFSGEMLYESRNKNSVA | HASERES | QDYHRLPLQ | 0.41 / 0.15 / 0.20 / -0.29 / 0.06 / 0.45 | 0.16 | 2 of 18 (2.09)
KSSQSDLYESRNGNSVA | NASYRED | QQYHRLPLS | 0.36 / 0.28 / 0.42 / -0.08 / 0.04 / 0.21 | 0.21 | 1 of 18 (2.26)
KISQSWLYEPRNSNSVA | NASTRLQ | QQYHRLPLS | 0.10 / -0.15 / -0.28 / -0.46 / -0.38 / -0.02 | -0.20 | 1 of 18 (3.91)
KQSQSQLYEDGNSNSVA | NASVRES | QQYHRLPLS | 0.45 / 0.02 / 0.09 / -0.02 / 0.02 / 0.31 | 0.15 | 1 of 18 (2.60)

For reference, 3 entries of the list once more:

CDR-L1 | CDR-L2 | CDR-L3 | replicates, log10 nM | mean log10 Kd (nM) | control signals
KLMQSSGYDSRNKNSVA | QASTRMS | QQYHRLPLS | 0.10 / 0.23 / 0.38 / 0.21 / -0.03 / 0.26 | 0.19 | 0 of 18
KLSMSWPLLWRNHNSVA | SASTRES | QQYHRLPLS | 0.34 / 0.19 / 0.43 / 0.14 / 0.19 / 0.32 | 0.27 | 1 of 18 (1.81)
KISQSVEYQQRNQNSVA | SASTRLS | QQYHRLPLS | 0.39 / 0.75 / 0.38 / 0.32 / 0.55 / 0.68 | 0.51 | 1 of 18 (3.34)